Laboratory results as given in patent US20050181450A1 (published 2005).

Target: T1, IRBIT (IP3R-binding protein released with inositol 1,4,5-trisphosphate) in the high salt extract of mouse … (mouse, UniProt Q80SW1)
T1 construct: Endogenous protein extracted with 500 mM NaCl from crude microsome of mouse cerebellum, not purified; sites not determined; also called IRBIT in the high salt extract
Assay: GST pulldown from the high salt extract, Western blot with anti-IRBIT antibody
Description: FIG. 9A is the schematic representation of the structure of mouse IP₃R1 and the recombinant GST fusion proteins used in this study. The IP₃ binding core region is indicated with a gray box. Putative membrane-spanning regions are indicated with solid vertical bars. Roman numbers I to V indicate the domain structure of IP₃R1 determined by the limited trypsin digestion (51). Numbers above the bars represent corresponding amino acid residue numbers. […] The high salt extract of crude microsome obtained from mouse cerebella was incubated with GST fusion proteins shown in (A). Bound proteins were pulled down with glutathione-Sepharose, eluted with glutathione, and analyzed by Western blotting using anti-IRBIT antibody. […] Bound proteins were pulled down with glutathione-Sepharose, eluted with glutathione, and then analyzed by Western blotting using anti-IRBIT antibody (upper panel). GST fusion proteins pulled down with glutathione-Sepharose were stained with Coomassie Brilliant Blue (lower panel).
For the determination of the IRBIT binding region and the critical amino acid residue of IP₃R1, the diluted high salt extract was subjected to pulldown assay as described above with 100 pmol of GST, GST-EL, GST-Ia, GST-Iab, GST-IbIIa, GST-IIab, GST-IIbIIIa, GST-IIIab, GST-IV, GST-IV-Va, K508A or R441Q, and analyzed by Western blotting with anti-IRBIT antibody.

binding result: no binding (tested: 100 pmol GST)
B1: GST (glutathione S-transferase alone, control) (other, UniProt P08515 1-218, looked up)
chain: MSPILGYWKIKGLVQPTRLLLEYLEEKYEEHLYERDEGDKWRNKKFELGLEFPNLPYYIDGDVKLTQSMAIIRYIADKHNMLGGCPKERAEISMLEGAVLDIRYGVSRIAYSKDFETLKVDFLSKLPEMLKMFEDRLCHKTYLNGDHVTHPDFMLYDALDVVLYMDPMCLDAFPKLVCFKKRIEAIPQIDKYLKSSKYIAWPLQGWQATFGGGDHPPK
notes: Control for GST-EL
